## Antibody variant affinities, Ab-14 heavy chain, assay 1

Reference: Engelhart et al. 2022, doi:10.1038/s41597-022-01779-4. File: FLAb, binding data.

Target: peptide PDVDLGDISGINAS, taken from heptad repeat 2 (HR2) of SARS-CoV-2 spike.

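The parent was found by panning a naive human phage display library on the peptide. The library (AAYL49) carries one to three amino acid substitutions per variant, with no insertions or deletions. AlphaSeq pools MATa yeast showing the antibodies with MATalpha yeast showing the peptide. Mating (16 h, 30 °C) was followed by selection of diploids and sequencing of their barcodes. Each replicate has its own calibration line, from reference interactions of the BCL2 family. There are three technical replicates.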

Each scFv is VH, a 15-residue (Gly4Ser)3 linker, VL, as in the parent Ab-14, and differs from it in the CDRs of the heavy chain only.
VH: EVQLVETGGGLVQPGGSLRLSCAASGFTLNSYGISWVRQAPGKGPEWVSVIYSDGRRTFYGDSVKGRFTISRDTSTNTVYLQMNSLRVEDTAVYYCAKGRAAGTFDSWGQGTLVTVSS
VL: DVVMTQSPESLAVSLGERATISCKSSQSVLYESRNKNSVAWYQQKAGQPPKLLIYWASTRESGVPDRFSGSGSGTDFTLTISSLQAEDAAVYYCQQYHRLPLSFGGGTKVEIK

Positions count from residue 1 of the parent VH; Y52N puts N in place of Y. Numbers give log10(Kd / nM), so 0 is 1 nM and 3 is 1 µM. Smaller is tighter. The mean shown is taken over the replicates in which the pair was detected. An entry "n.d." has no value in the source: the pair was not observed among the diploids in that replicate. This suggests poor binding but is not conclusive. In this assay the parent's reference entry averaged 0.65; its copy inside this library read 4.11 (one replicate of three). Background: pairings of library AAYL49 with three empty control strains gave a value in 15% of cases (median 4.06, 5th percentile 2.83). Values in that range, when seen in few replicates, are hard to tell from nonspecific mating. For each scFv, signals with the empty controls are counted beside the result, with their mean in brackets.

changes,"log10 Kd, replicates","mean, log10 nM",empty controls
Y52N+S63E,n.d. n.d. n.d.,n.d.,0 of 9
T28F+S53V+T58H,n.d. 3.49 3.98,3.73,4 of 9 (3.28)
Y60V+G61N+K65F,n.d. n.d. n.d.,n.d.,1 of 9 (4.11)
F27K+R100C+F105R,n.d. n.d. n.d.,n.d.,1 of 9 (3.43)
I34K+A101I+S107F,n.d. n.d. n.d.,n.d.,1 of 9 (4.43)
L29Q+V50Y+T58L,4.13 2.87 4.25,3.75,2 of 9 (2.80)
Y32M+G99Q,n.d. n.d. n.d.,n.d.,2 of 9 (3.98)
G26T+G33M+G103P,n.d. n.d. n.d.,n.d.,2 of 9 (3.98)
G99L,0.70 0.60 0.42,0.57,0 of 9
G33N+D54F+K65L,n.d. n.d. n.d.,n.d.,0 of 9
I34T+Y52C+D62W,n.d. n.d. n.d.,n.d.,0 of 9
Y52C+G55L+T58E,n.d. 3.20 5.71,4.46,1 of 9 (3.61)
S35T+V50L+G55I,n.d. n.d. n.d.,n.d.,0 of 9
Y52G+F59M+Y60E,4.57 3.67 4.75,4.33,1 of 9 (4.06)
Y32W+I34H+S53Y,n.d. n.d. n.d.,n.d.,2 of 9 (4.78)
F27D+K65T+G103N,1.13 1.62 1.24,1.33,0 of 9
G55T+R100M+G103T,n.d. n.d. n.d.,n.d.,2 of 9 (4.31)
L29F+Y60S+S107R,n.d. n.d. n.d.,n.d.,1 of 9 (3.51)
S31E+V50M+G103Y,n.d. n.d. n.d.,n.d.,0 of 9
S31N+Y52I+A101G,n.d. n.d. n.d.,n.d.,2 of 9 (3.85)
R56S+R100I,n.d. 4.41 n.d.,4.41,1 of 9 (4.33)
I51S+T104F+F105I,n.d. n.d. n.d.,n.d.,0 of 9
F59V+S63Y+S107Y,3.75 3.03 3.26,3.35,1 of 9 (5.57)
V64M+R100W+G103F,n.d. n.d. n.d.,n.d.,0 of 9
L29R+S63F+T104V,n.d. n.d. n.d.,n.d.,1 of 9 (3.97)
I51S+Y52V+G99E,n.d. n.d. n.d.,n.d.,1 of 9 (4.28)
G103F+F105Q,n.d. n.d. n.d.,n.d.,1 of 9 (3.86)
N30I+S31W+G61H,n.d. 2.40 n.d.,2.40,1 of 9 (2.86)
G99D+G103W,n.d. n.d. n.d.,n.d.,0 of 9
Y52W+D54G+A102Y,n.d. n.d. n.d.,n.d.,0 of 9
G61W+A101N+G103N,n.d. 4.58 3.11,3.84,1 of 9 (3.09)
V50Q+R57G+S63E,n.d. n.d. n.d.,n.d.,6 of 9 (4.56)

Picked from the list: the 5 lowest averages where every replicate gave a value.

| changes | log10 Kd, replicates | mean, log10 nM | empty controls |
|---|---|---|---|
| G99L | 0.70 0.60 0.42 | 0.57 | 0 of 9 |
| F27D+K65T+G103N | 1.13 1.62 1.24 | 1.33 | 0 of 9 |
| F59V+S63Y+S107Y | 3.75 3.03 3.26 | 3.35 | 1 of 9 (5.57) |
| L29Q+V50Y+T58L | 4.13 2.87 4.25 | 3.75 | 2 of 9 (2.80) |
| Y52G+F59M+Y60E | 4.57 3.67 4.75 | 4.33 | 1 of 9 (4.06) |